Biological target: Carbonic anhydrase 2 (Homo sapiens, UniProt P00918)

- Kd: 14 nM
SMILES: NC(Cc1ccccc1)C(=O)[C@@H](N)C(=O)NCCOCCOCCNC(=O)c1ccc(S(N)(=O)=O)cc1 (stereo partly specified)
